From BindingDB's records for doi:10.1007/bf00168610 (UniversitÄT Heidelberg, 1991)

Protein sequences, listed by entry. Tags and fused reporters are not part of them.
UniProt P47745, whole entry: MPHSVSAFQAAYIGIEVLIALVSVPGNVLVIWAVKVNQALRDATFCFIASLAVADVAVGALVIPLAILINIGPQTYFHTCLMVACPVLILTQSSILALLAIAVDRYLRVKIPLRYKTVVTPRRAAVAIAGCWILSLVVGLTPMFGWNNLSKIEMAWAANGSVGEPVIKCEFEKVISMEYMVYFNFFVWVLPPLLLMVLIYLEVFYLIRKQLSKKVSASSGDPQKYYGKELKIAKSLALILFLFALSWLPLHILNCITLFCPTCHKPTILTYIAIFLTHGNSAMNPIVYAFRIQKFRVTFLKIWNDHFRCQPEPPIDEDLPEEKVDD

Molecular target: Adenosine receptor A1 (Cavia porcellus, UniProt P47745)

In the case of Cn1c(=O)c2[nH]cnc2n(C)c1=O [Theophylline (1,3-dimethylxanthine)], the Ki is reported as 5.98 µM and 7.06 µM.

“And” between values parts separate entries of the source, which are not always exact repeats. Equal entries are not always repeated.
